The subject of experiment [1] is MiaPaCa-2 cells. Kind of experiment: LDH release into cell culture medium (CytoTox96) as marker for necrosis. Format: cell-based, human. To be noted: MiaPaCa-2 cells transfected with plasmid, 24 h, FIG. 8B condition 3. As for the experimental part: (§1) Cells from culture plates at 18, 44, 66 and 90 h time points were lysed in situ in cell lysis buffer [1% Triton X-100 in 0.05 M Tris-HCl (pH 8.0), […], 0.02% Na azide, 0.1 mg/ml phenylmethylsulfonylfluoride (PMSF), and 0.001 mg/ml Aprotinin]. Lysates were subjected to 10% SDS-PAGE followed by electrotransfer to nitrocellulose and immunoblotting with antibodies to GFP and p53 (Santa Cruz Biotechnology, Santa Cruz, Calif.). Antibody-labeled proteins were identified by chemiluminescence using ECL methodology (Amersham)(1). Assays for elevated caspase expression were performed using the Clontech (Palo Alto, Calif.) for caspase (CPP32) activity (2). As a positive control for the caspase activity assay, Mia-PaCa-2 cells were incubated with tumor necrosis factor (TNF) (Sigma, St. Louis, Mo.) at a concentration of 10 ng/ml for 24 h. In addition, to detect if significant cell necrosis occurred, the CytoTox96 assay was used (Promega, Madison, Wis.) for LDH released into the cell culture medium as performed on several breast cancer cell lines (2).
For orientation: LDH leaks from cells whose membrane has failed.

The test system of experiment [2] is MiaPaCa-2 cells. Put plainly: Caspase (CPP32) activity assay as marker for apoptosis. The format is cell-based, human. The following applies: MiaPaCa-2 cells transfected with plasmid, FIG. 8A condition 3. As to the method:
as §1

For ETFSDLWKLL [p53 17-26 peptide], the LDH release result in the experiment with MiaPaCa-2 cells [1] is reported as “do not release LDH”. In the experiment with MiaPaCa-2 cells [2], the “caspase expression versus untreated/background (condition 2)” value is “almost five times the background level”.

The values are drawn from US8822419B2, “Membrane resident peptide in anti-cancer peptides causes tumor cell necrosis rather than apoptosis of cancer cells” (The Research Foundation of State University of New York, priority 2008, dated 2014).
